Reference: patent US20140220085A1, “METHOD FOR TISSUE ENGINEERING” (Industrial Technology Research Institute, priority 2011, published 2014)

Experiments:
C2C12 cells [1] = experiment: Detection of activity of ALP in C2C12 cells, 72 hours, pNPP substrate / BCA; format: cell-based
Procedure: C2C12 cells purchased from Bioresource Collection and Research Center (BCRC) were cultured in an incubator with 5% CO2 and cryopreserved in a liquid nitrogen barrel. A DMEM medium (10% FBS and 1% penicillin/streptomycin) was utilized for cell culture and subculture. When the cells were cultured to achieve 90% of confluence, the concentration of the cells was diluted with a ratio of 1:10 and subcultured.
(§1) The concentration of the C2C12 cells was adjusted to 4×10^4 cells/ml. 0.5 ml of the medium was dropped in a 24-well cell culture plate and left to stand in an incubator with 5% CO2 for 18 hours to make the cells uniformly attach to the cell culture plate. The medium in the cell culture plate attached with the cells was replaced with a DMEM medium (2% FBS) and the sample of No. 4 recited on Table 2 of Example 2 was added thereto. The encapsulation amount of BMP-2 ranged from 10 μg/mL to 100 μg/mL. The cell culture plate was left to stand in the incubator for 72 hours. After the cells were washed with PBS, a lysis buffer was added to the medium. After centrifugation, a supernatant was collected and a BCA (bicinchoninic acid) assay was performed thereon to detect the protein concentration thereof. The activity of alkaline phosphatase (ALP) was detected utilizing the p-nitrophenyl palmitate (pNPP) substrate.
as §1, with “No. 3” for “No. 4”, “thereto. Other added nano carriers encapsulated various vitamins.” for “thereto. The encapsulation amount of BMP-2 ranged from 10 μg/mL to 100 μg/mL.”
The concentration of the C2C12 cells was adjusted to 4×10^4 cells/ml. 0.5 ml of the medium was dropped in a 24-well cell culture plate and left to stand in an incubator with 5% CO2 for 18 hours to make the cells uniformly attach to the cell culture plate. The medium in the cell culture plate attached with the cells was replaced with a DMEM medium (2% FBS) and the sample of No. 3 recited on Table 2 of Example 2 was added thereto. […] The activity of alkaline phosphatase (ALP) was detected utilizing the p-nitrophenyl palmitate (pNPP) substrate.

C2C12 cells [2] = experiment: Activity of ALP in C2C12 cells with agglomer placed in a transwell; format: cell-based; conditions: FIG. 11, C2C12, 72 hours
Procedure: The concentration of the C2C12 cells was adjusted to 4×10^4 cells/ml. 1.0 ml of the medium was dropped in a 12-well cell culture plate and left to stand in an incubator with 5% CO2 for 18 hours to make the cells uniformly attach to the cell culture plate. The medium in the cell culture plate attached with the cells was replaced with a DMEM medium (2% FBS). A transwell with a pore size of 8.0 μm was placed on the cell culture plate. The biomedical material (agglomer) of Example 7 was placed in the transwell. The medium was then added to the transwell to cover the biomedical material (agglomer). The cell culture plate was left to stand in the incubator for 72 hours. After the cells were washed with PBS, a lysis buffer was added to the medium. After centrifugation, a supernatant was collected and a BCA (bicinchoninic acid) assay was performed thereon to detect the protein concentration thereof. The activity of alkaline phosphatase (ALP) was detected utilizing the p-nitrophenyl palmitate (pNPP) substrate.

## human bone morphogenetic protein 2 [BMP-2]
C2C12 cells [1]; FIG. 6, C2C12, 72 hours
  activity of ALP: 3.1
C2C12 cells [1]; FIG. 6, two times the amount of BMP-2 (100 μg/ml) without encapsulation
  activity of ALP: 5.1
C2C12 cells [1]; FIG. 7, C2C12, 72 hours, vitamin A high dose 0.26 μμmol/ml for the nano carrier
  activity of ALP: 0.65
C2C12 cells [1]; FIG. 7, four times the amount of BMP-2 (200 μg/ml) without encapsulation
  activity of ALP: 1.7
C2C12 cells [2]
  activity of ALP: 1.00
